# Test results from PubChem BioAssay AID488928 (Johns Hopkins Ion Channel Center, 2010).
# Only a part is listed here, and it is no random draw. Active and inactive are the calls of the source.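 The calls were made as follows: active = drop in membrane potential signal beyond 5 SD of the control wells in both duplicate plates; inactive = the rest.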
# Test system: TRPC4 (transient receptor potential cation channel C4), mouse
# Assay: DAMGO-evoked mouse TRPC4 response blockade – cell-based, second screen, HEK293 TRPC4/mu-opioid, membrane potential dye, selectivity assay for TRPC6 modulator project, confirmation (AID 488928);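 also: TRPC4 counter screen for TRPC6 hits run under conditions tuned for TRPC6 not TRPC4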
# Details: membrane potential dye fluorescence, at 10 µM, stimulated with maximal-effect DAMGO; stronger effect = higher value
row,Compound,inhibition
1,CCN(CC)CC(O)COC(=O)C(O)(c1ccccc1)C1CCCCC1 (stereo not drawn),active: 29.5%
2,CCN(CC)CCCOC(=O)C(O)(c1ccccc1)c1ccccc1,inactive
3,O=C(OC1CN2CCC1CC2)C12CC3CC(CC(C3)C1)C2 (stereo not drawn),active: 42.5%
